Reference: patent publication US20210186970A1, “SELECTIVE CALCIUM CHANNEL ANTAGONISTS” (Northwestern University, priority 2011, published 2021)

The chains behind the UniProt entries cited, without tags or fusion partners.
UniProt P27732, whole entry: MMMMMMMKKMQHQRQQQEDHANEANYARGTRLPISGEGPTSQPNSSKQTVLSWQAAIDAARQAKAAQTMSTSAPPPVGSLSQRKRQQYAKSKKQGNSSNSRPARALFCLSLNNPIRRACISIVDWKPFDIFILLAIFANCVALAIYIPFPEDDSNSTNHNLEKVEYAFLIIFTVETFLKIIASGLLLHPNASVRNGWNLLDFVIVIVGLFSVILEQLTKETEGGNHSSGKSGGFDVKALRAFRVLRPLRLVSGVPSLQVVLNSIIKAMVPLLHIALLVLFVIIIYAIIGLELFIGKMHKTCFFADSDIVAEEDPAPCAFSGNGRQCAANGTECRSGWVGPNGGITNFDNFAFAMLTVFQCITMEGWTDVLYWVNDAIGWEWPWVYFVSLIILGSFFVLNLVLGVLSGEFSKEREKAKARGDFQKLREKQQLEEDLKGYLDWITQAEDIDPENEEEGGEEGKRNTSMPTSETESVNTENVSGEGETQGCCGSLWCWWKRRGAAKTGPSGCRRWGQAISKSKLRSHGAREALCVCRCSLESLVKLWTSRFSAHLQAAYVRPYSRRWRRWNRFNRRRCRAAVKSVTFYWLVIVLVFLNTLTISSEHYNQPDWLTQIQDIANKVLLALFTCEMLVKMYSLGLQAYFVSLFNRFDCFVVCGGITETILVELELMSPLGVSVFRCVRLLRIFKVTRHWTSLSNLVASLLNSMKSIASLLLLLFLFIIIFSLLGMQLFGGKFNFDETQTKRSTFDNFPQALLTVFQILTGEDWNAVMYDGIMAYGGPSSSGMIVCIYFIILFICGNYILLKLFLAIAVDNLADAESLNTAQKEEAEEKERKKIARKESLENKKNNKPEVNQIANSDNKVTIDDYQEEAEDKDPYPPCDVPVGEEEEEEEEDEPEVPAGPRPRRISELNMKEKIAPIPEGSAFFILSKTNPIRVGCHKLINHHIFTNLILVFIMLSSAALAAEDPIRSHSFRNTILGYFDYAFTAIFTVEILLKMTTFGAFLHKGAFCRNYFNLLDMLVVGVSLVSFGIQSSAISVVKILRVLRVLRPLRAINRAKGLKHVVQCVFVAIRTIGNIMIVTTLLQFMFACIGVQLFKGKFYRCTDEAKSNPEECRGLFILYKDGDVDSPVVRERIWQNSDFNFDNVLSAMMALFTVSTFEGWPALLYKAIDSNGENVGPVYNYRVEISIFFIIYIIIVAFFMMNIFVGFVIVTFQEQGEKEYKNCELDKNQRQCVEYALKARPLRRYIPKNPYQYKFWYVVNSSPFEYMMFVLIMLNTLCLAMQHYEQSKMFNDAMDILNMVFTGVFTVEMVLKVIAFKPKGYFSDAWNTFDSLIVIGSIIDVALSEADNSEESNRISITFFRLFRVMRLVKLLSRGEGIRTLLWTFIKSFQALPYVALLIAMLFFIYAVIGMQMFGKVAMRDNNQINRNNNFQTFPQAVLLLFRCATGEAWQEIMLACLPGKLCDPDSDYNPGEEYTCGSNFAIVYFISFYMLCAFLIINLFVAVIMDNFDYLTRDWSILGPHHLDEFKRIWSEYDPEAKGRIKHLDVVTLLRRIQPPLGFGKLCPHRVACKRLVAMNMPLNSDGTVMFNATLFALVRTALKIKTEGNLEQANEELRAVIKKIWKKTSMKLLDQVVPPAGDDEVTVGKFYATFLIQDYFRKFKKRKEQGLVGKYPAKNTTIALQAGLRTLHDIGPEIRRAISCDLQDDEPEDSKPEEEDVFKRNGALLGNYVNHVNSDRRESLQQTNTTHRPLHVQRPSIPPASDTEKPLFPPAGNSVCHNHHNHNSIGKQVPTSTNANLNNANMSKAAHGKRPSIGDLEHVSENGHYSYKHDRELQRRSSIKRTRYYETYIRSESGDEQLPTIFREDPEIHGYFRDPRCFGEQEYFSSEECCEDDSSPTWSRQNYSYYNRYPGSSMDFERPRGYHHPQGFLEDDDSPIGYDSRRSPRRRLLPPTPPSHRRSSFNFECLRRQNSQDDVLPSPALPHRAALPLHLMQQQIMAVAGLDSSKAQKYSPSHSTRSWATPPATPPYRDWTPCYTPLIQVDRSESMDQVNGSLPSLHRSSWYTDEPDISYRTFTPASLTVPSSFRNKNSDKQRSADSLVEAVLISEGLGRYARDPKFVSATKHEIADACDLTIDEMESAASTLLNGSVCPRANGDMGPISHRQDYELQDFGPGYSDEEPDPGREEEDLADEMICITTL

Biological target: T1, Cav1.3 L-type Ca channels (Rattus norvegicus, UniProt P27732)
T1 construct: expressed in transfected cells; host or cells: HEK293
Test: FLIPR Fluo-8 calcium assay, Cav1.3 channel inhibition in HEK293 cells
Assay type: cell-based

Work on `O=C1CC(=O)N(Cc2ccc(Cl)cc2)C(=O)N1CCc1ccc2ccccc2c1` [Compound 66] yielded a Selectivity of 1.4.
